## AlphaSeq binding of Ab-95 light chain variants to a spike HR2 peptide

Target peptide (SARS-CoV-2 spike, HR2 region): PDVDLGDISGINAS

Parent scFv Ab-95: VH joined to VL by the linker GGGGSGGGGSGGGGS. Changes lie in the light chain CDRs alone.
VH: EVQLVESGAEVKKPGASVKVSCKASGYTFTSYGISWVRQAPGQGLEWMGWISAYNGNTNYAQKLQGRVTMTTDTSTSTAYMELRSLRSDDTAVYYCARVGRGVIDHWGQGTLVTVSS
VL: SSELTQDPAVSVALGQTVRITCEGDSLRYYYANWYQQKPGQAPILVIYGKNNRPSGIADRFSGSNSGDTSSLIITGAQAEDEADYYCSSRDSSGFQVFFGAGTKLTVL

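The parent was found by panning a naive human phage display library on the peptide. The library (AAYL52) carries one to three amino acid substitutions per variant, with no insertions or deletions. In AlphaSeq, yeast of one mating type display the scFv and yeast of the other type display the target. Binding brings cells together so that they mate, and sequencing counts the barcode pairs among the diploids. Scores were corrected for input abundance and mapped to Kd with protein pairs of known affinity run in the same pool. There are three technical replicates.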

Variants are written as CDR1, CDR2 and CDR3 of the light chain (limits as in the source). Parent: EGDSLRYYYAN, GKNNRPS, SSRDSSGFQVF.
Values are log10 of the apparent Kd in nM; lower means stronger binding.
A mean of the replicates is given; it leaves out those without a signal.
"nd" marks a missing value. The strain was present, yet no cells mated with the target were sequenced in that replicate, which points to weak or no binding.
Background: pairings of library AAYL52 with three empty control strains gave a value in 28% of cases (median 3.91, 5th percentile 2.90). Values in that range, when seen in few replicates, are hard to tell from nonspecific mating. Also given: how often the same scFv was detected with the empty control strains, with their mean in brackets.

CDR-L1 | CDR-L2 | CDR-L3 | replicates, log10 nM | log10 Kd (nM), mean | signal with controls
EGFSMRYYYAN | GKNNVPS | SSRDSSGFQVF | 3.41 / nd / 3.09 | 3.25 | 3 of 9 (3.88)
YGDSYRYYYWN | GKNNRPS | SSRDSSGFQVF | 4.23 / 3.56 / 4.40 | 4.06 | 4 of 9 (4.70)
EGDSLRYQYAT | DKNNRPS | SSRDSSGFQVF | 2.62 / 2.56 / 2.76 | 2.65 | 2 of 9 (4.45)
EGDSLRYYYAN | GKPNSPS | SSRESSGFQVF | 5.60 / 4.64 / nd | 5.12 | 3 of 9 (4.06)
EGDSLRYYYAN | GKNNRPS | ASRDGSGFYVF | nd / nd / nd | nd | 1 of 9 (3.94)
EGDSLAYYYAN | GKNNRPS | SSPDSYGFQVF | nd / 3.83 / nd | 3.83 | 6 of 9 (4.04)
EGDSLRYYYAN | GKNNRPS | SSRDSVNFQVF | nd / 3.09 / nd | 3.09 | 1 of 9 (3.58)
EGDSLRYYYAN | GKNMRPS | SSRDSSHFQVF | 3.01 / 2.76 / 2.91 | 2.89 | 2 of 9 (3.87)
EGDMLRYYYAN | GKNNTPS | SSRDSSGFFVF | nd / nd / 3.35 | 3.35 | 3 of 9 (3.58)
EGDSLDYYYAN | GKNFRPS | MSRDSSGFQVF | 3.20 / 2.52 / 2.19 | 2.63 | 2 of 9 (3.84)
EGDSLDYYTAN | GKNNRPS | SSRSSSGFQVF | 2.20 / 2.31 / 1.77 | 2.10 | 3 of 9 (3.39)
EGDSLRYYYAN | GKNNCPS | SSRDSSGFHMF | 4.96 / 3.14 / 3.65 | 3.92 | 2 of 9 (3.15)
EGDSLRYYYSN | GKNNRPS | SSRDSWGKQVF | 2.98 / nd / nd | 2.98 | 1 of 9 (3.55)
EGDSLPYYYAN | GKNNRPG | SSRDSKGFQVF | 2.64 / 2.78 / 3.23 | 2.89 | 4 of 9 (4.30)
YGSSLRYYYNN | GKNNRPS | SSRDSSGFQVF | 4.28 / 3.02 / 3.48 | 3.59 | 1 of 9 (4.85)
EGDSLRYYYFN | GKNNRPS | SPRDSSGFVVF | nd / nd / nd | nd | 2 of 9 (3.62)
EWDSLRYYYAN | GKNNRPS | SSRDLSGFEVF | 4.00 / 4.42 / nd | 4.21 | 2 of 9 (3.49)
EGDSLRYHYAN | GKNNRPS | SSCDSSGFQVE | 3.50 / nd / nd | 3.50 | 1 of 9 (2.19)
EGDSLRYYYAN | GKNNRPH | SSRDSSTFQQF | nd / 3.31 / nd | 3.31 | 1 of 9 (3.05)
EQDSLRYYYAN | GKNNRYS | SSRDSSGFQQF | 4.37 / 4.09 / nd | 4.23 | 4 of 9 (4.02)
EGDSLRTYYAN | GKNNRPL | ISRDSSGFQVF | nd / nd / nd | nd | 3 of 9 (3.41)
EGDSLRYYYAD | GKNNRPS | SSRDSTGFCVF | nd / nd / 3.39 | 3.39 | 2 of 9 (3.14)
EGDSYRYYYAN | GKNNRPS | SSRDSSTFQVF | 3.15 / nd / nd | 3.15 | 1 of 9 (4.77)
EGQSLRYYYFN | GKNIRPS | SSRDSSGFQVF | 2.53 / 3.24 / 2.22 | 2.67 | 2 of 9 (3.47)
EGDSNVYYYAN | GKNLRPS | SSRDSSGFQVF | 2.24 / 2.40 / 1.28 | 1.97 | 3 of 9 (4.22)
EGDYLRYYYAN | GKNNRPS | MSRDHSGFQVF | 2.67 / 2.27 / 2.83 | 2.59 | 1 of 9 (4.33)
EGDSLRYYYAK | GKNNRPS | SSNTSSGFQVF | 4.20 / nd / nd | 4.20 | 5 of 9 (4.24)
EGDSLRYYYAN | GKNNRGS | SSRDSSWFQVW | 2.27 / 2.98 / nd | 2.63 | 0 of 9
EGDSLRYYHAN | GKNNRPD | DSRDSSGFQVF | 2.52 / 2.72 / 2.35 | 2.53 | 4 of 9 (4.17)
EGDSLRYYYAN | GKNNRPS | SSRESSGFQVF | 2.85 / 3.68 / nd | 3.26 | 2 of 9 (4.46)
EPDSLRYYYFN | GKNNRPS | SSRDGSGFQVF | 3.51 / 3.56 / nd | 3.54 | 4 of 9 (4.03)
EGDSLRDYYAN | GKNNRSS | SSRDSSGFQNF | 3.28 / 4.47 / nd | 3.88 | 2 of 9 (3.20)
EGDSLRYYYAA | GKNNAPS | SSRDSSGFQVF | nd / nd / nd | nd | 1 of 9 (3.67)
EGDSNRYKYAN | GKNNRPS | SSRDSSGFQVF | 2.42 / 2.11 / 2.39 | 2.30 | 4 of 9 (3.81)
EGDSLRFQYAN | AKNNRPS | SSRDSSGFQVF | 1.86 / 1.78 / 1.45 | 1.69 | 2 of 9 (3.76)
EGDSLRYYYVN | GKNNRPS | SSRDSSGFQHF | 5.62 / 5.54 / 4.22 | 5.13 | 4 of 9 (3.28)
EGDSLRYYYAN | GKCDRPS | SSRDSMGFQVF | 3.45 / 4.42 / nd | 3.93 | 4 of 9 (3.94)
EGDSLRYYYAN | GENNRPS | SSRDSSGFPVF | 2.65 / 2.62 / 2.06 | 2.44 | 2 of 9 (5.27)
EGDSLRIYYAN | LKNNRMS | SSRDSSGFQVF | nd / nd / nd | nd | 2 of 9 (3.32)
EGDSLRYQYAN | CKNNRPS | SSRDSSGFQVF | nd / 3.19 / 3.35 | 3.27 | 1 of 9 (2.99)
CPDGLRYYYAN | GKNNRPS | SSRDSSGFQVF | nd / nd / nd | nd | 0 of 9

The closing 3 entries, repeated:

CDR-L1,CDR-L2,CDR-L3,"replicates, log10 nM","log10 Kd (nM), mean",signal with controls
EGDSLRIYYAN,LKNNRMS,SSRDSSGFQVF,nd / nd / nd,nd,2 of 9 (3.32)
EGDSLRYQYAN,CKNNRPS,SSRDSSGFQVF,nd / 3.19 / 3.35,3.27,1 of 9 (2.99)
CPDGLRYYYAN,GKNNRPS,SSRDSSGFQVF,nd / nd / nd,nd,0 of 9

For reference, the parent read 2.31 as the reference entry and 2.25 as a member of this library.

From the AlphaSeq antibody data of Engelhart et al. 2022 (doi:10.1038/s41597-022-01779-4), copy in the FLAb collection.